# Antibody variant affinities, Ab-91 heavy chain, assay 2

From the AlphaSeq antibody data of Engelhart et al. 2022 (doi:10.1038/s41597-022-01779-4), copy in the FLAb collection.

The target is the same throughout: PDVDLGDISGINAS, from the HR2 region of SARS-CoV-2 spike.

The variants keep the light chain, the linker and the frameworks of Ab-91 (scFv order VL, the linker GGGGSGGGGSGGGGS, VH).
VL: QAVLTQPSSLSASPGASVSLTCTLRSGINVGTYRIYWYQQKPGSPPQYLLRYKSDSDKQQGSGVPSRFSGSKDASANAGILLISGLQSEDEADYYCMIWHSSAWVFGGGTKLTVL
VH: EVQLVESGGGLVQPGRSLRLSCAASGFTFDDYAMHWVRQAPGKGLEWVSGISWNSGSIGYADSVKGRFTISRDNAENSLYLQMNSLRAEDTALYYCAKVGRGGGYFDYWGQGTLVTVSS

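The starting antibody came from a phage panning campaign against this peptide. The library (AAYL51) carries one to three amino acid substitutions per variant, with no insertions or deletions. The assay is AlphaSeq: two haploid yeast populations carry antibody and antigen on their surface. The frequency of each diploid, read from paired DNA barcodes, reflects how well the two displayed proteins bind. Read counts were normalised to the haploid input and turned into Kd by a linear fit to BCL2-family pairs of known affinity, for each replicate. The assay was run in three technical replicates.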

The parent's heavy chain CDRs are GFTFDDYAMH, GISWNSGSIGYADSVK, VGRGGGYFDY; each variant's own CDRs replace them letter for letter. The Kd shown is the geometric mean over detected replicates; a lower Kd is a better binder. Where no diploid with the target was found in any replicate, the entry reads "no signal": below detection, most likely a poor binder, though not proof of it. Entries are sorted by rising average, undetected variants last. As a blank, each scFv also met three strains without target: over library AAYL51, 21% of these pairings were detected, typically at 34 µM and seldom below 1.8 µM.

apparent Kd,detected,CDR-H1,CDR-H2,CDR-H3
290 pM,3/3,GFTFDYYAMH,GISWNSGSEGYADNVK,VGRGGGYFDY
7.6 nM,3/3,GFTFDDYAMH,GISWNSGSIGYADSVL,PGRGGEYFDY
12 nM,3/3,GFTFDEYAMH,GISWNSGSIGYADTVK,VGRGGGYFDQ
14 nM,3/3,GFTFDDYAMH,GISWNSGSIGYADSVT,VGFGGGYFDY
380 nM,3/3,GFTFDDYAMH,GIDWNSGSIGYADSVK,VGRGGGYKDY
830 nM,3/3,YFTFDLYAMH,GISWNSGSIGYADSVK,VGRGGGYFDY
1.7 µM,1/3,GFTFDDYADH,GISWNSGSIGYADSVK,GGRGGGYMDY
4.2 µM,3/3,GFTFDDYTMH,GISWNQGSISYADSVK,VGRGGGYFDY
5.0 µM,1/3,GFTFDDYTMH,GISWNSGSQGYADSSK,VGRGGGYFDY
5.6 µM,2/3,GFTFDDYAMH,GISDESGSIGYADSVK,VGRGAGYFDY
5.8 µM,1/3,EFTFDDYAMH,GISWNSGSGGYADSVK,VGRGGYYFDY
9.2 µM,1/3,GFTFDVYAMH,GISWNSGSIGAADSAK,VGRGGGYFDY
9.7 µM,1/3,GFTPDDYAMH,GVSWNNGSIGYADSVK,VGRGGGYFDY
13 µM,1/3,GFTFDDYAMH,GISWNSGSIGYADYVK,VSRGGGYFDY
14 µM,2/3,GFTFDDYAMH,GISWNSGEIGYADSVM,VGEGGGYFDY
16 µM,2/3,GFTFDDYAMH,GISENSGSIGYADSVK,VGRGFGYFDY
18 µM,2/3,YFTFDDYAMH,SISWNSGSIGYADSVK,VGRGGGYFDY
21 µM,3/3,GFTFDDYAMH,GISWNSGSIGYADSVA,VGRGGGYSGY
32 µM,1/3,GFTFDDWAMY,RISWNSGSIGYADSVK,VGRGGGYFDY
35 µM,1/3,GFTFDDYKMH,IQSWNSGSIGYADSVK,VGRGGGYFDY
43 µM,3/3,AFTFDDYAMH,GISWNCCSIGYADSVK,VGRGGGYFDY
45 µM,2/3,GFTFDDRAMH,GISWNSSSRGYADSVK,VGRGGGYFDY
50 µM,2/3,GPTFDDYAMH,GISWNSGSIGYADSVK,VGRGLGYFDQ
51 µM,1/3,GFTFDDYAMH,GISWNSYSIGYADSVF,VGRGGGYFDE
51 µM,3/3,GFTFDKYAMH,GISWNSGSIGYDDSVK,VGRGPGYFDY
53 µM,2/3,GFTFGDYAMH,GPSWNSGSIGYADSVK,VGPGGGYFDY
63 µM,3/3,GFTEDDYAME,GISWNSGSIGRADSVK,VGRGGGYFDY
65 µM,3/3,GFTFDSYAMH,GISWNSGSIGYSDSVK,WGRGGGYFDY
77 µM,1/3,GFTFDDYAMH,GISWNSGSIEYADCVK,VGWGGGYFDY
80 µM,2/3,GFTFDDYAMH,GISWNSGSRGYWDSSK,VGRGGGYFDY
160 µM,1/3,GFTFLDYAAH,GISWNSGSIGYADSVW,VGRGGGYFDY
340 µM,1/3,GFTFDDYAMH,GIRWNSGSIGYADSVK,PGRGGTYFDY
770 µM,3/3,GFTFDDYAMH,FISWNSGSIMYADYVK,VGRGGGYFDY
no signal,0/3,GFTFDDYAMC,GISWISGSIGYADSVK,YGRGGGYFDY
no signal,0/3,GFTFDDYAMH,GISWNSGSIGWADSVL,VGRGGTYFDY
no signal,0/3,GFTFDDYAMH,GISWNSGSRGNAWSVK,VGRGGGYFDY
no signal,0/3,GFTFDDYAMH,GQSWNSGSIGKADSDK,VGRGGGYFDY
no signal,0/3,GFTFADYAKH,GISWNSGSIGYADSVK,HGRGGGYFDY
no signal,0/3,GFTFDDYAMH,MISWNSGSIGYADSVK,VGRGGGYFDS
no signal,0/3,GFTFDDYAMP,GISWPSGSIGYADSVK,VGRGGGYFDY
no signal,0/3,GSYFDDYAMH,GISWNQGSIGYADSVK,VGRGGGYFDY
no signal,0/3,GFTFDDYAMH,GISWNSGSIGYADSVY,VGRGGGRMDY
no signal,0/3,GFTFDDQAMH,GISWNIGSIGYADSVK,VGRGGEYFDY
no signal,0/3,GFTFDDYGMH,GIPWNSGSIGYNDSVK,VGRGGGYFDY
no signal,0/3,GCTFDDYAMH,GISWNSGSIGYNDSVK,VGRGGGYFRY
no signal,0/3,GFTFDDYEMH,GISINSGSIGYADSVK,VGRGYGYFDY
no signal,0/3,GFTFDDYAMV,GISWNSQSIGYADSVK,VGRGGGYFDN

The closing 4 entries, repeated:

{"CDR-H1": "GFTFDDYGMH", "CDR-H2": "GIPWNSGSIGYNDSVK", "CDR-H3": "VGRGGGYFDY", "apparent Kd": "no signal", "detected": "0/3"}
{"CDR-H1": "GCTFDDYAMH", "CDR-H2": "GISWNSGSIGYNDSVK", "CDR-H3": "VGRGGGYFRY", "apparent Kd": "no signal", "detected": "0/3"}
{"CDR-H1": "GFTFDDYEMH", "CDR-H2": "GISINSGSIGYADSVK", "CDR-H3": "VGRGYGYFDY", "apparent Kd": "no signal", "detected": "0/3"}
{"CDR-H1": "GFTFDDYAMV", "CDR-H2": "GISWNSQSIGYADSVK", "CDR-H3": "VGRGGGYFDN", "apparent Kd": "no signal", "detected": "0/3"}

For reference, the parent read 72 nM as the reference entry and 7.5 nM as a member of this library.